Compounds with a hit are over-represented: about 16% of the library has one in this group of screens.
TDP1 cell CPT: growth inhibition of DT40 Tdp1-/-;hTDP1 cells with camptothecin (screen for TDP1 inhibitors) | AID 686979 | chicken DT40 Tdp1-/-;hTDP1 cells + 20 nM CPT, ATP luminescence, 48 h | 420,000 tested, 12% active | Potency, µM (titrated, usually from 46.2 µM), inactives show at the highest dose activity change, negative = growth inhibition, actives largely listed as inhibitors; note: potency is the fitted concentration of half-maximal effect; % is set by controls: 0 for no effect and ±100 for the full control effect; nearly all actives have a fitted effect of over 55% in size
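Cell growth measured by CellTiter-Glo luminescence after a minimum 48 h, 37 C compound exposure with 20 nM CPT in Tdp1-knockout DT40 cells stably expressing hTDP1, seeded 400/well; qHTS titration format.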
uPA surface inh: inhibitors of cell surface uPA generation; cell surface uPA generation assay, qHTS; 330,000 tested, 0.31% active; Potency, µM (doses to about 38.3 µM), without a hit: top-dose activity change, negative = inhibition, hits mostly inhibitors; AID 540303; active = well fitted inhibition curve with a large enough effect; inconclusive = small, poorly fitted or top-dose-only effect; inactive = no such curve, though single readings can be large or run the other way; tested in mouse RAW 264.7 cells; note: potency is the fitted concentration of half-maximal effect; % is set by controls: 0 for no effect and ±100 for the full control effect; nearly all actives have a fitted effect of over 55% in size
TDP1 cell noCPT: qHTS for Inhibitors of human tyrosyl-DNA phosphodiesterase 1 (TDP1): qHTS in cells in absence of CPT; 420,000 tested, 15% active; Potency, µM (top dose mostly 46.2 µM), without a hit: at the highest dose activity change, negative = growth inhibition, most hits filed as inhibitors; DT40 Tdp1-/- hTDP1 cells, no CPT, ATP luminescence, 48 h; note: potency is the fitted concentration of half-maximal effect; % is set by controls: 0 for no effect and ±100 for the full control effect; nearly all actives have a fitted effect of over 55% in size
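DT40 Tdp1-/-;hTDP1 cells, no CPT (DMSO vehicle only), 400 cells/well; compounds pin-transferred; ≥48 hr, 37 °C; CellTiter-Glo 30 min RT dark, luminescence read.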
miR-21 reporter: miR-21 reporter, rising signal; HeLa miR-21 FLuc reporter, luciferase, 48 h; Potency, µM (titrated, usually from 38.3 µM), for the others: at the top dose reporter change, positive = more light; 340,000 tested, under 10 active; AID 2288; active = well fitted rising curve with a large enough effect; inconclusive = small, poorly fitted or top-dose-only effect; inactive = no such curve, though single readings can be large or run the other way;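 also: % of control where 0% means no effect; miR-21 action dims this reporter so a rising signal means less miR-21 action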
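Compounds were titrated across several concentrations (up to approximately 40 uM) and incubated 48 hours with HeLa miR-21-FLuc reporter cells (miR-21 target sequence downstream of FLuc, endogenous miR-21). Readout was firefly luciferase luminescence after lytic detection reagent.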
TDP1 block: blocks human tyrosyl-DNA phosphodiesterase 1. Q9NUW8. recombinant TDP1, AlphaScreen DNA substrate cleavage. Potency, µM (doses to about 130 µM), for inactives: top-dose activity change, negative = inhibition, actives largely listed as inhibitors. 350,000 tested, 0.28% active. AID 485290; note: potency is the fitted concentration of half-maximal effect; % is set by controls: 0 for no effect and ±100 for the full control effect; nearly all actives have a fitted effect of over 40% in size
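Steps: enzyme plus compound, 15 min RT; add biotin/phosphotyrosine-FITC oligonucleotide (15 nM final), react 5 min; add donor/acceptor beads (10 ug/ml final), 10 min; read AlphaScreen. Tdp1 at 1 nM final.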
* marks the source's active call; other numbers are inactive results; ? = inconclusive; . = not tested or not shown; [ ] = remark or other dose. Unless noted, calls come from the whole dose curve; as a rule, active = well fitted curve in the direction sought with a large enough effect; inconclusive = small, poorly fitted or top-dose-only effect, or another doubt; inactive = no such curve, though single readings can be large; an effect the other way counts as inactive or inconclusive.

SMILES | TDP1 cell CPT | uPA surface inh | TDP1 cell noCPT | miR-21 reporter | TDP1 block
COC1/C=C/C=C(\C)Cc2cc(O)c(Cl)c(c2)N(C)C(=O)CC(OC(=O)C(C)C)C2(C)OC2C(C)C2CC1(O)NC(=O)O2 (stereo unspecified) | 0.016µM* | -12% | 0.15µM* | . | .
NCCNC[C@@H](N)CCCN=C(N)N[N+](=O)[O-] | . | . | . | . | 19%
Cc1cccc(NC(=O)Oc2ccc(Cl)c3cccnc23)c1 | 12µM* | . | 5.2µM* | . | .
CN(C(=O)Oc1ccc(Cl)c2cccnc12)c1ccccc1 | -15% | 3% | -15% | -13% | 6%
CC(=O)Oc1ccc(Cl)c2cccnc12 | 3.7µM* | . | 8.2µM* | . | 18%
CCN(C[C@H]1N[C@@](CC)(C(=O)OC)[C@H]2C(=O)N(Cc3ccccc3)C(=O)[C@@H]12)C(=O)Nc1ccc(Cl)cc1 | ? | -7% | 21µM* | . | .
CCN(C[C@H]1N[C@@](C)(C(=O)OC)[C@H]2C(=O)N(Cc3ccccc3)C(=O)[C@@H]12)S(=O)(=O)c1ccc(C(C)(C)C)cc1 | 21µM* | 1% | 23µM* | . | 3%
COC(=O)[C@]1(C)N[C@H](CN(C)S(=O)(=O)c2ccc(-c3ccccc3)cc2)[C@@H]2C(=O)N(Cc3ccccc3)C(=O)[C@@H]21 | ? | -5% | ? | . | 0%
COC(=O)[C@@]1(C)[C@H]2C(=O)N(Cc3ccccc3)C(=O)[C@H]2[C@H]2CN=C(SCc3ccc(Cl)cc3)N21 | ? | 9% | ? | . | 1%[56.1 µM]
O=S1(=O)N(Cc2ccc(F)cc2)CCCN1Cc1ccccc1Cl | -9% | 1% | -11% | 0% | .
CN1Cc2ccccc2-n2nncc2C1 | -9% | -3% | 1% | . | .
Fc1ccccc1CN1Cc2ccccc2-n2nncc2C1 | ? | . | 23µM* | . | .
CC(C)(C)C(=O)N1Cc2cc(-c3ccccc3)ccc2-n2nncc2C1 | 16µM* | . | ? | . | .
c1ccc(-c2ccc(CN3Cc4ccccc4-n4nncc4C3)cc2)cc1 | 4.6µM* | . | 5.2µM* | . | .
Cc1[nH]cnc1CCN | . | . | . | . | 15%
O=C(Cn1c(=O)n(Cc2ccccc2)c(=O)c2sc3ccccc3c21)NCc1ccccc1Cl | -17% | . | ? | -2% | 4%
BrCCBr | . | . | . | . | 17%
CCc1ccc(NC(=O)c2cc(S(=O)(=O)N3CCCC3)c[nH]2)cc1 | ? | ? | 23µM* | 16% | .
CCCCCl | -19% | . | -2% | . | 18%
O=C(/C=C/c1ccc(Cl)cc1)NC(=S)N1C[C@H]2C[C@H](C1)c1cccc(=O)n1C2 | 3% | 8% | -6% | -4% | .
Cc1ccc(S(=O)(=O)N(CC(=O)NCCSc2ccc(Cl)cc2)c2ccccc2C)cc1 | 21µM* | . | 23µM* | ? | 7%
Brc1ccc2[nH]cc(C=NN3CCCCCC3)c2c1 | 23µM* | 0% | 13µM* | . | .
C(=NC1CCCCC1)c1c[nH]c2ccccc12 | 0% | 2% | 3% | . | .
O=C(Nc1ccon1)c1cccn(Cc2cccc([N+](=O)[O-])c2)c1=O | ? | . | ? | 1% | 3%
Nc1c(C(=O)Nc2ccc(OC(F)(F)F)cc2)sc2nc3c(cc12)N1CCC3CC1 | 16µM* | . | 18µM* | ? | 5%
CC(=O)c1ccc(NC(=O)c2sc3nc4c(cc3c2N)N2CCC4CC2)cc1 | . | . | . | 19% | -6%
CCCCC[C@@H](/C=C/C=C\CCCCCCCCCC(=O)O)OO | . | . | . | . | 5%
O=C1NC(=O)N(Cc2ccc(F)cc2)C(=O)/C1=C/c1cccs1 | 12µM* | 2% | 8.2µM* | 3% | -5%
Cc1cc(/C=C2\C(=O)NC(=O)N(Cc3ccccc3Cl)C2=O)c(C)n1-c1ccc(C(=O)O)cc1 | -2% | . | 11% | 5% | 22µM*
O=C1NC(=O)N(Cc2ccccc2Cl)C(=O)/C1=C/c1cccs1 | 6.5µM* | ? | 4.6µM* | 20% | -1%

In the list so far, two have a COOH group:
SMILES | TDP1 cell CPT | uPA surface inh | TDP1 cell noCPT | miR-21 reporter | TDP1 block
CCCCC[C@@H](/C=C/C=C\CCCCCCCCCC(=O)O)OO | . | . | . | . | 5%
Cc1cc(/C=C2\C(=O)NC(=O)N(Cc3ccccc3Cl)C2=O)c(C)n1-c1ccc(C(=O)O)cc1 | -2% | . | 11% | 5% | 22µM*

(next part)
SMILES | TDP1 cell CPT | uPA surface inh | TDP1 cell noCPT | miR-21 reporter | TDP1 block
Cc1cc(/C=C2\C(=O)NC(=O)N(Cc3ccccc3)C2=O)c(C)n1-c1ccc(Cl)c(C(=O)O)c1 | 2% | 7% | 1% | 6% | .
CCOC(=O)Nc1ccc2c(c1)N(C(=O)CN(C)C)c1ccccc1CC2 | ? | 0% | ? | -5% | .
CCOC(=O)C1C(C=C(C)C)C1(C)C (stereo unspecified) | -5% | . | 17% | . | 8%
CCOC(=O)c1ccc(N2C(=O)CC(N3CCC(O)(c4ccc(Cl)cc4)CC3)C2=O)cc1 (stereo unspecified) | ? | 3% | ? | 3% | 7%
Cc1ccc(C(=O)Nc2ccc(S(=O)(=O)N3CCC(c4nc5ccccc5s4)CC3)cc2)cc1 | ? | . | ? | -1% | 9%
Cc1ccc(NC(=O)c2ccc(S(=O)(=O)N(C)c3ccccc3)cc2)cc1S(=O)(=O)N1CCOCC1 | 23µM* | ? | ? | . | .
COc1cccc(OC)c1-c1nn2c(-c3n[nH]c4c3CCC4)nnc2s1 | 6.3µM* | . | 5.6µM* | . | -5%
COC(=O)C1=C(c2ccc(C(C)=O)cc2)C[C@@H]2CC[C@H]1N2C(=O)NCCCOC(C)C | -8% | 17% | -2% | . | 0%
CN1CSC(=S)N(C)C1 | 6.5µM* | 1% | 4.6µM* | 4% | -9%
COC(=O)c1ccccc1C(=O)OC | 1% | . | -5% | . | 6%

Quoted at random: four records from the list.
SMILES | TDP1 cell CPT | uPA surface inh | TDP1 cell noCPT | miR-21 reporter | TDP1 block
CCOC(=O)C1C(C=C(C)C)C1(C)C (stereo unspecified) | -5% | . | 17% | . | 8%
CCOC(=O)Nc1ccc2c(c1)N(C(=O)CN(C)C)c1ccccc1CC2 | ? | 0% | ? | -5% | .
COC(=O)c1ccccc1C(=O)OC | 1% | . | -5% | . | 6%
COC(=O)C1=C(c2ccc(C(C)=O)cc2)C[C@@H]2CC[C@H]1N2C(=O)NCCCOC(C)C | -8% | 17% | -2% | . | 0%

(continued)
SMILES | TDP1 cell CPT | uPA surface inh | TDP1 cell noCPT | miR-21 reporter | TDP1 block
Cc1ccccc1Nc1c(-c2ccc(Br)cc2O)nc2sccn12 | ? | . | ? | -1% | 5%
COc1ccc(Nc2c(-c3cc(Br)ccc3O)nc3ncccn23)cc1OC | 18µM* | . | 23µM* | 1% | 4%[12.3 µM]
CCOc1ccc(N=C2SCCCN2C)cc1 | -29% | 5% | ? | -5% | 3%
CC(C)(C)OC(=O)NCc1ccc(CNC(=O)c2[nH]cnc2C(=O)Nc2ccccc2F)cc1 | 13µM* | . | 7.3µM* | . | .
O=c1oc(C2(O)CCCCC2)cc2ccc(-c3ccc4[nH]ccc4c3)cc12 | 12µM* | ? | ? | . | 0%
CN(C)CCc1c[nH]c2cccc(OP(=O)(O)O)c12 | 10%[92.5 µM] | . | 3%[92.5 µM] | . | .
C=CCO[C@@H](Cn1ccnc1)c1ccc(Cl)cc1Cl | . | . | . | . | 5%[21 µM]
FC(F)Sc1ccc(NC(=S)NC(c2ccccc2)c2ccccc2)cc1 | 4.6µM* | ? | 10µM* | ? | 2%
O=C(COC(=O)Cc1ccccc1)Nc1ccc(SC(F)F)cc1 | -10% | 6% | 18% | -6% | -3%
Fc1ccc(NC(=S)NC2CC3CCC(C2)N3Cc2ccco2)cc1 (stereo unspecified) | 2% | . | ? | -5% | 1%
O=C(Nc1ncccc1O)c1ccc(S(=O)(=O)NCc2ccco2)cc1 | 21µM* | . | 23µM* | . | .
N#Cc1c(Br)n(C2OC(CO)C(O)C2O)c2ncnc(N)c12 (stereo unspecified) | 1.5µM* | -8% | 1.2µM* | . | .

Screening results deposited in PubChem BioAssay by National Center for Advancing Translational Sciences (NCATS).
